The record followed here is PMC6735864 (Nucleic Acids Research, 2019).

This experiment concerns the target T1, HA-Lamin A (human, UniProt P02545 1-646).
T1 sequence: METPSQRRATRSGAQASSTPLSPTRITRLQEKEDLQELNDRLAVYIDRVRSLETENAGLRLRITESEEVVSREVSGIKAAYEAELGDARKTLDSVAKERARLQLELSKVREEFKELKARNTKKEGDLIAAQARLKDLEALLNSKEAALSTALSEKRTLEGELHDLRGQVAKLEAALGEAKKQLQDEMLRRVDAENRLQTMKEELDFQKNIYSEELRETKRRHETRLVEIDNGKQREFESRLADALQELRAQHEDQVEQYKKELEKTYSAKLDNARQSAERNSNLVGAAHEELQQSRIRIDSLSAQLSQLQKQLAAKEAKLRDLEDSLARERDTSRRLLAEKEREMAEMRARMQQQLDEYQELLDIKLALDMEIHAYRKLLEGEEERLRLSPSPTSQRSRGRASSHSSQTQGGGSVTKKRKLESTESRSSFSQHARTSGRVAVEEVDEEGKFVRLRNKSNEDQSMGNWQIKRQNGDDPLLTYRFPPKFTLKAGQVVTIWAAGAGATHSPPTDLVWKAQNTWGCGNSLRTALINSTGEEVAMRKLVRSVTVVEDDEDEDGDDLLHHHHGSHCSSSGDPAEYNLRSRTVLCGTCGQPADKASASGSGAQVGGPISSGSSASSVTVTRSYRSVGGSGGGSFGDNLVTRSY
Kind of experiment: pull-down.

B1: Histone H3K18me2 ([…]) peptide, biotinylated (peptide)
peptide: not shown
modifications: dimethyl-lysine at 18; biotin on the added C-terminal lysine; C-terminal amide
On to B1, for which the binding result was “binds”.

B2: Histone H3 ([…]) peptide, biotinylated (peptide)
peptide: not shown
modifications: biotin on the added C-terminal lysine; C-terminal amide
With B2, the binding result is “binds”.
